# Laboratory results reported in article PMC3716919, “Oxidative stress disruption of receptor-mediated calcium signaling mechanisms” (Journal of Biomedical Science, 2013).
# Tested on: CHO-M3 cells
# Assay: Cell viability, MTS reduction assay
smiles,measurement,setting,value
"CC(C)(C)OO [tBHP, tert-butyl hydroperoxide]",cytotoxicity (MTS reduction),"90 min exposure, concentrations up to 20 mM",not observed
same,lowest concentration with significant cytotoxicity,"exposure extended for an additional hour (150 min), data not shown",1 mM
